Source: patent US20250122567A1, “Methods of Identifying and Treating Subjects having Inflammatory Subphenotypes of Asthma” (National Jewish Health, priority 2015, published 2025)

System: HRV-16
Experiment: HRV-16 infection in DPP4 transfected cells with Alogliptin DPP4 inhibitor
Type: cell-based, human rhinovirus-16
Conditions: 0.1 nM, InM and 10 nM of DPP4 inhibitor vs control

Compound: Cn1c(=O)cc(N2CCC[C@@H](N)C2)n(Cc2ccccc2C#N)c1=O [DPP4 inhibitor, Alogliptin]
- HRV-16 infection (mRNA) in DPP4 transfected and HRV-16 infected bronchial epithelial cells: reverses DPP4 downregulation of bronchial epithelial cells (BEC) HRV-16 Infection
